ARNT TACC3 PPI: disruptors of human ARNT/TACC3 interaction; Q9Y6A5; AID 623870; AlphaScreen His-ARNT PAS-B/GST-TACC3 binding, luminescence; TACC3 fragment carries E629A point mutation; inhibition, % at 9.99 µM; 0.66% of 390,000 active;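 active means mean inhibition of replicates at least 50% and at least half of replicates each reaching 50%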;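 further: 0% = complete ARNT plus TACC3 wells and 100% = ARNT alone without TACC3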
S100A4 MyoIIA: inhibitors of human S100A4 binding to myosin IIA peptide | P26447 | S100A4/TAMRA-MyoIIA peptide fluorescence polarization | inhibition, % at 10.7 µM | 0.14% of 360,000 active | AID 652163;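 active means mean inhibition of at least 70% across replicates, with every replicate also reaching that level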
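Material: S100A4 monomer (human). Medium: Calcium-containing HEPES buffer, pH 7.2. Probe or stimulus: labelled myosin peptide probe, 5 nM. Compound dosing: one concentration per compound. Timing: polarization read 5 min after assay mix addition, stable 5–60 min. Benchmarks: DMSO as neutral control, TFP as positive control.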
Yeast UUG start: alters start codon recognition fidelity in yeast; S. cerevisiae UUG-firefly luciferase reporter, luminescence/redox ratio; activity score, % at 18.7 µM; actives 0.13% (n = 350,000); AID 602363;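 active = replicate mean at a twofold rise or more, about +100% in these data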;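 also: firefly luciferase made from a UUG start codon reports start codon fidelity; reporter light over untreated wells divided by growth signal over untreated wells; some hits fall short of that in this replicate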
E-sel inducer: E-selectin induction on HUVECs; P16581; HUVEC E-selectin immunofluorescence imaging; normalized: neutral wells 0, TNF-alpha wells 100; activation, % at 7.58 µM; 0.37% of 260,000 active;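 active means mean E-selectin-positive cell signal at least 10% of the positive control, reached in at least 60% of replicates, without over 20% cell loss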
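Material: HUVEC primary endothelial cells; Amount: 3,000 cells per well; Dosing: single concentration; Medium: EGM-2 growth medium on 0.1% gelatin-coated wells; Read-out basis: percent E-selectin-positive cells; Signal: immunofluorescence imaging; Control set: TNF-alpha, DMSO.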
AF4-AF9 inh: blocks AF4 peptide binding to human AF9; P42568; AlphaScreen, biotin-AF4 peptide binding to FLAG-AF9; inhibition, % at 10 µM; 0.47% of 350,000 active; AID 651704;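 active means every replicate reaching a set inhibition limit, whatever the replicate mean, cut at about 25% in these data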;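 further: 0% = plate neutral control median and 100% = total signal loss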
ERAP1 inh: ERAP1 (human) enzyme inhibition | Q9NZ08 | recombinant ERAP1, Leu-AMC fluorescence, 60 min | inhibition, % at 10.7 µM | 0.15% of 340,000 active | AID 652197;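 active means mean replicate inhibition of at least 30%, or all replicates individually reaching that 30% level; inactive means mean below 30% and not every replicate reaching it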;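 further: 0% = neutral control wells and 100% = L-leucinethiol positive control wells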
* = called active by the depositor. Most compounds without a hit are left out; they make up all but 1.3% or so of the library.

How did CCCC(=O)NC1=C(Cl)C(=O)c2ccccc2C1=O do in these assays?
ARNT TACC3 PPI: 24.5*; S100A4 MyoIIA: 3.4; AF4-AF9 inh: 2.3; ERAP1 inh: 2.8

How did O=C(CN1CCCC1)OCCCC1CCCCC1 do in these assays?
ARNT TACC3 PPI: 1.8; S100A4 MyoIIA: -7.1; E-sel inducer: 10.4; ERAP1 inh: 2.3

How did CC(C)(C)C1CCC(OC(=O)C[N+]2(C)CCCC2)CC1 (stereo not drawn) do in these assays?
ARNT TACC3 PPI: 5.6; S100A4 MyoIIA: -3.3; E-sel inducer: 1.6; AF4-AF9 inh: -4.9; ERAP1 inh: 40.9*

What do the screens show for `C[N+]1(CC(=O)OCCCC2CCCCC2)CCCC1`?
ARNT TACC3 PPI: 1.9; S100A4 MyoIIA: -3.3; AF4-AF9 inh: -6.4; ERAP1 inh: 107.9*

How did CC(C)(C)C1CCC(OC(=O)C[N+]2(C)CCCCC2)CC1 (stereo not drawn) do in these assays?
ARNT TACC3 PPI: -0.7; S100A4 MyoIIA: 0.9; AF4-AF9 inh: -1.1; ERAP1 inh: 2.8

What do the screens show for `CC1Oc2ccccc2N(CC(=O)N2CCCc3ccccc32)C1=O` (stereo not drawn)?
ARNT TACC3 PPI: -8.4; S100A4 MyoIIA: -2.5; Yeast UUG start: 2.6; AF4-AF9 inh: 5.9; ERAP1 inh: -3.4

Results for CC1Oc2ccccc2N(CC(=O)N2CCCCC2)C1=O (stereo not drawn) ?
ARNT TACC3 PPI: 0.7; S100A4 MyoIIA: -7.6; Yeast UUG start: -11.9; AF4-AF9 inh: 30.4*; ERAP1 inh: 1.3

Results for C[C@@H]1CN([C@H](C)CO)C(=O)c2cc(NC(=O)Nc3ccccc3)ccc2O[C@H]1CN(C)S(=O)(=O)c1ccccc1 ?
ARNT TACC3 PPI: -9.6; S100A4 MyoIIA: 6.5; Yeast UUG start: 5.5; E-sel inducer: 0.3; AF4-AF9 inh: 1.5; ERAP1 inh: -0.2

What do the screens show for `C[C@H]1CCCCO[C@H](CN(C)C(=O)c2ccccc2)[C@@H](C)CN([C@@H](C)CO)C(=O)c2cc(NC(=O)Nc3ccc(F)cc3)ccc2O1`?
ARNT TACC3 PPI: 4.9; S100A4 MyoIIA: 1.3; Yeast UUG start: -3.0; E-sel inducer: 0.1; AF4-AF9 inh: -6.5; ERAP1 inh: -5.2

How did O=C(NCc1ccc(F)cc1)c1cc(C2CCCCN2C(=O)CCCc2ccccc2)on1 (stereo not drawn) do in these assays?
S100A4 MyoIIA: 2.4; Yeast UUG start: -16.9; E-sel inducer: 82.9*; AF4-AF9 inh: -2.5; ERAP1 inh: 0.3

What do the screens show for `CN(CC(=O)Nc1ccccc1Cl)C(=O)COC(=O)c1ccc([N+](=O)[O-])s1`?
ARNT TACC3 PPI: 46.3*; S100A4 MyoIIA: -2.2; Yeast UUG start: 12.0; AF4-AF9 inh: 1.9; ERAP1 inh: -0.2

How did O=C(COC(=O)c1ccc([N+](=O)[O-])s1)NNC(=O)c1ccccc1 do in these assays?
ARNT TACC3 PPI: 42.1*; Yeast UUG start: -5.8

How did C[C@H](CO)N1C[C@H](C)[C@H](CN(C)C(=O)C2CC2)Oc2cc(C#CC3CCCC3)ccc2S1(=O)=O do in these assays?
ARNT TACC3 PPI: -0.9; S100A4 MyoIIA: -95.7; Yeast UUG start: 3.3; E-sel inducer: -0.4; AF4-AF9 inh: -16.0; ERAP1 inh: 1.8

What do the screens show for `N#C[C@@H]1[C@@H](c2ccc(/C=C/c3ccccc3)cc2)[C@@H](CO)N1C(=O)C1CCC1`?
ARNT TACC3 PPI: -11.7; S100A4 MyoIIA: -5.9; Yeast UUG start: 4.1; E-sel inducer: -0.1; AF4-AF9 inh: 1.9; ERAP1 inh: 2.3

Results for CN(CCCC(=O)O)c1ccc(N=Nc2ccc([N+](=O)[O-])cc2)cc1 ?
ARNT TACC3 PPI: 19.4; S100A4 MyoIIA: 3.3; E-sel inducer: 0.8; AF4-AF9 inh: 38.3*; ERAP1 inh: 1.3

What do the screens show for `C[C@H](CO)N1C[C@H](C)[C@@H](CN(C)C)Oc2ccc(NC(=O)c3ccncc3)cc2CC1=O`?
ARNT TACC3 PPI: -6.6; S100A4 MyoIIA: -1.3; Yeast UUG start: -8.2; E-sel inducer: -2.0; AF4-AF9 inh: -0.3; ERAP1 inh: -0.5

How did COc1ccc(S(=O)(=O)N(C)C[C@@H]2OCCCC[C@@H](C)Oc3ccc(NC(=O)Nc4c(C)noc4C)cc3C(=O)N([C@H](C)CO)C[C@H]2C)cc1 do in these assays?
ARNT TACC3 PPI: -0.8; S100A4 MyoIIA: 7.7; Yeast UUG start: 0.8; E-sel inducer: -0.2; AF4-AF9 inh: 2.7; ERAP1 inh: 1.2

Results for O=c1[nH]c(/C=C\c2ccc(O)c(O)c2)nc(O)c1[N+](=O)[O-] ?
ARNT TACC3 PPI: 37.1*; S100A4 MyoIIA: -8.0; Yeast UUG start: 9.2; E-sel inducer: 0.3; AF4-AF9 inh: 0.1; ERAP1 inh: 7.2

What do the screens show for `CC(C)CC#Cc1cnc2c(c1)C(=O)N([C@H](C)CO)C[C@H](C)[C@H](CN(C)C(=O)CN1CCOCC1)O2`?
ARNT TACC3 PPI: -8.6; S100A4 MyoIIA: -1.8; Yeast UUG start: -0.8; E-sel inducer: -0.1; AF4-AF9 inh: -4.1; ERAP1 inh: 0.6

How did COc1ccc(C(C)(O)c2nc(-c3cccs3)cs2)cc1 (stereo not drawn) do in these assays?
S100A4 MyoIIA: 182.2*; Yeast UUG start: -22.3; E-sel inducer: 1.7; AF4-AF9 inh: -0.1; ERAP1 inh: 1.9

What do the screens show for `COc1ccc(C(C)(O)c2nc(-c3ccccc3)cs2)cc1` (stereo not drawn)?
S100A4 MyoIIA: -3.8; Yeast UUG start: -3.0; E-sel inducer: 0.2; AF4-AF9 inh: -3.4; ERAP1 inh: -0.5

What do the screens show for `COCC(=O)N(C)C[C@H]1Oc2cc(-c3ccc(OC)cc3)ccc2S(=O)(=O)N([C@@H](C)CO)C[C@H]1C`?
ARNT TACC3 PPI: -2.2; S100A4 MyoIIA: -51.0; Yeast UUG start: -9.0; E-sel inducer: 0.2; AF4-AF9 inh: -0.5; ERAP1 inh: 0.8

What do the screens show for `COc1ccc(S(=O)(=O)Nc2ccc3c(c2)CC(=O)N([C@@H](C)CO)C[C@H](C)[C@H](CN(C)Cc2ccc4c(c2)OCO4)O3)cc1`?
ARNT TACC3 PPI: -0.7; S100A4 MyoIIA: -2.6; Yeast UUG start: 8.0; E-sel inducer: -0.1; AF4-AF9 inh: -0.8; ERAP1 inh: -0.5

Results for CC(Nc1ccc(F)cc1)=[N+](C)CCNS(=O)(=O)c1ccc(Cl)cc1 ?
ARNT TACC3 PPI: -1.7; S100A4 MyoIIA: -0.1; Yeast UUG start: -15.1; AF4-AF9 inh: -10.0; ERAP1 inh: 38.5*

What do the screens show for `CCNS(=O)(=O)c1ccc(NC(=O)Cc2ccc(F)cc2)cc1`?
ARNT TACC3 PPI: 4.0; S100A4 MyoIIA: -28.9; Yeast UUG start: -16.9; AF4-AF9 inh: -47.6; ERAP1 inh: 2.7

How did O=C(CSC(=S)N1CCOCC1)c1cc2ccccc2oc1=O do in these assays?
ARNT TACC3 PPI: 47.9*; Yeast UUG start: -8.9

How did CO[C@H]1CN(C)C(=O)c2cc(NC(=O)C3CCC3)ccc2OC[C@@H](C)N(Cc2ccccn2)C[C@H]1C do in these assays?
E-sel inducer: 0.0

Three entries drawn at random from the list so far, as already listed:
Results for CN(CCCC(=O)O)c1ccc(N=Nc2ccc([N+](=O)[O-])cc2)cc1 ?
ARNT TACC3 PPI: 19.4; S100A4 MyoIIA: 3.3; E-sel inducer: 0.8; AF4-AF9 inh: 38.3*; ERAP1 inh: 1.3

What do the screens show for `COc1ccc(C(C)(O)c2nc(-c3ccccc3)cs2)cc1` (stereo not drawn)?
S100A4 MyoIIA: -3.8; Yeast UUG start: -3.0; E-sel inducer: 0.2; AF4-AF9 inh: -3.4; ERAP1 inh: -0.5

How did CO[C@H]1CN(C)C(=O)c2cc(NC(=O)C3CCC3)ccc2OC[C@@H](C)N(Cc2ccccn2)C[C@H]1C do in these assays?
E-sel inducer: 0.0

High-throughput results: PubChem BioAssay, Broad Institute
